Source: US12139488B2, “Pyrido[3,2-d]pyrimidine compounds uses thereof for treating a proliferative disease” (Universite de Montreal, priority 2021, dated 2024)
Read-outs that look alike come from different tables or passages of the source.

Amino acid sequences for entries named in this document (tags omitted).
UniProt P10398, whole entry: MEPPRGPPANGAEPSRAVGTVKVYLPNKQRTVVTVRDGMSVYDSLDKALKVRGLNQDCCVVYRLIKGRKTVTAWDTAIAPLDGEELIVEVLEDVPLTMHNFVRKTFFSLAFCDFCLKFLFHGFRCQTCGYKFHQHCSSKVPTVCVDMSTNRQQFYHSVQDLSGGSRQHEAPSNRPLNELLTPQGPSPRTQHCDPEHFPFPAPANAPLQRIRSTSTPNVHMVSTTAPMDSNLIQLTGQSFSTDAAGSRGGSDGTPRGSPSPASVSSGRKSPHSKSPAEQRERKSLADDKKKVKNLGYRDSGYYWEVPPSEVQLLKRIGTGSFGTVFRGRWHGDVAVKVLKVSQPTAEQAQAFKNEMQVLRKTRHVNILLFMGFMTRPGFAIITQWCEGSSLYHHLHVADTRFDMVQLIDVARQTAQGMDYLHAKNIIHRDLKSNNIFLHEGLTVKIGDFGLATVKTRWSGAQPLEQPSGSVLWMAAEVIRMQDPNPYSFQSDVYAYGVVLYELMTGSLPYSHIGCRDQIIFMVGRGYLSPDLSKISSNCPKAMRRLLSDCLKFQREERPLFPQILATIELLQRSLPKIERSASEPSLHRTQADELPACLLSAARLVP
UniProt P04049, whole entry: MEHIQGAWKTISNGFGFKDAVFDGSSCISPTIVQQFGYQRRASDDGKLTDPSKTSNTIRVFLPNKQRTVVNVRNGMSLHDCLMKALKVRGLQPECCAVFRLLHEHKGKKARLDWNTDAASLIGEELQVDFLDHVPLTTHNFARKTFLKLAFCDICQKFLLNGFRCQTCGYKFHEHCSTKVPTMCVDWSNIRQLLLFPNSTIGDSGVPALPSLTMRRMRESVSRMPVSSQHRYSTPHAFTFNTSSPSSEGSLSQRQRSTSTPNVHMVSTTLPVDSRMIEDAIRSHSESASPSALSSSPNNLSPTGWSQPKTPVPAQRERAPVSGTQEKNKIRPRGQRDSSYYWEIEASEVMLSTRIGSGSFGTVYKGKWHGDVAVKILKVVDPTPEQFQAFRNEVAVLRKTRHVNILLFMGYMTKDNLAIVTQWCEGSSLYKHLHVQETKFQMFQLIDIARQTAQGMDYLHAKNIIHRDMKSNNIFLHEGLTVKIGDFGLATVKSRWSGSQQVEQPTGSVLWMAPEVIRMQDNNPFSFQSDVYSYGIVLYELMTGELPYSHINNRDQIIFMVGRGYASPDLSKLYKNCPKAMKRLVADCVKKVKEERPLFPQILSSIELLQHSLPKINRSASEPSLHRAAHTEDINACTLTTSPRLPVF

How the values were obtained:
ARAF = ARAF (Homo sapiens (Human), UniProt P10398); test: ARAF kinase activity assay (AlphaLISA p-MEK 1/2 detection); conditions: read-out: Kinase IC50 (nM) ARAF
Method: Compound preparation: solid samples of each substances in 1 dram vials were suspended in DMSO (Fisher Scientific) at a stock concentration of 20 mM. Stocks were kept at −20° C. and protected from light. If solubility of the compound at 20 mM appeared to be an issue, the initial concentration of the DMSO stock was changed to 10 mM or 5 mM.
In vitro enzymatic reactions were used for evaluating compounds intrinsic activity against BRAF, CRAF and ARAF. For BRAF and CRAF, 0.375 nM of purified GST-tagged kinases (cat #B4062-10 UG and cat #R1656-10 UG respectively from Millipore Sigma) were incubated with 75 nM of kinase-dead MEK1 substrate (cat #40075; BPS Bioscience) in the presence of 10 μM of Ultrapure ATP (cat #V9102; Promega; part V915A) with and without the test compound in a buffer containing 50 mM HEPES pH 7.5, 10 mM MgCl2, 1 mM EDTA, 0.01% Brij-35 and 2 mM DTT. Separate reactions were performed with the MEK1 substrate and ATP as a blank control. ARAF, kinase reactions were rigorously the same with the exception that kinase concentration was raised to 3.75 nM (cat #1768-0000-1; Reaction Biology).
For compound treatment, 5 μL/well of test substance solution are placed in a 384-well proxyplate (Perkin Elmer) and mixed with 2× concentrated kinase reactions. The dilution series is selected so that nine concentrations cover a range from 100 nM to 0.01 nM. […] The final concentration of DMSO in the assay is set at 0.05%.
ARAF kinase reactions were carried out for a total of 2 hours at 30° C. and then stopped by addition of EDTA at a final concentration of 40 mM. Reactions were then detected using the AlphaLISA® SureFire® Ultra™ p-MEK 1/2 (Ser218/222) (PerkinElmer) kit. Reactions were performed with 5 μL of kinase reaction according to the manufacturer's specifications in 384-well proxyplates (Perkin Elmer) followed by overnight incubation of the AlphaLISA® reactions at room temperature in a humidified chamber. After completion of the detection reactions, the signals were recorded on a Synergy Neo2 plate reader (Biotek) equipped with AlphaLISA® filters. The effect of each compound dilution on the pMEK signal generated by ARAF reactions was expressed in % inhibition and calculated as follows. An internal 100% inhibition control (average of luminescence in kinase reactions comprising kinase dead MEK1 substrate alone) was included in each plate to measure of pMEK background and was subtracted from each data point. The average of DMSO (vehicle) controls (set as 0% inhibition) was also established and used to calculate % inhibition: % inhibition=100*(1−((pMEK signalcompound)/(pMEK signalDMSO)))
IC50 values were obtained by plotting the kinase inhibition values and fitting the dose-activity curves using a log(agonist) versus response-variable slope (four parameters) function using either GraphPadPrism (V7.0) or Dotmatics Screening Ultra platform. Standards included in the ARAF kinase assay were Belvarafenib (MedChem Express cat #HY-109080; CAS #1446113-23-0), LXH254 (MedChem Express cat #HY-112089; CAS #1800398-38-2) and BGB283 (cat #HY-18957; CAS #1446090-79-4).

[1] = tested on: SK-MEL30 cells (NRAS-Q61K); test: Proliferation inhibition (CellTiter-Glo), SK-MEL30; conditions: read-out: SK-MEL30 Prolif. EC50; SK-MEL30, 3 days
Method: All cancer cell lines (A375, A101D, A2058, RKO, HT29 SK-MEL 30, IPC298, HepG2, HCT-116, Lovo, SWV620, SW480, NCI-H358, NCI-H2122, Calu-6, NCIH2087, NCIH1755, NCIH1666 and Mewo) were obtained from ATCC and cultured in RPMI-1640 medium (Gibco) supplemented with 5% heat inactivated fetal bovine serum (FBS, Wisent) at 37° C. under 5% CO2. Cells were maintained in T175 flasks (Greiner). They were passaged by removing the culture medium, washing once in 10 mL of room temperature Phosphate Buffered Saline (PBS; Wisent) and incubating at 37° C. with 2 mL of 0.05% Trypsin (Thermo-Fisher). Trypsin was then inactivated by adding complete growth medium and the cells were then replated in a T175 culture dish at the appropriate dilution. All cell lines were routinely tested for mycoplasma contamination. Tissue type and mutational status of each cell line can be found in Table B.
CellTiter-Glo® viability analysis was conducted on cells plated in 100 μL of complete RPMI-1640 growth medium in 96-well flat-bottomed white opaque plates (Greiner or Croning) at a density indicated in Table E (for each CCL, number of cells plated per well of a 96-well plate to perform the CellTiter-Glo® cell viability assay). The cell density in cells/cm^2 would correspond to cell number divided by the area of one well of a 96-well plate (0.32 cm^2). Cells were maintained overnight at 37° C. under 5% CO2 before treatment with compounds' dilution series for 3 days.
In a dilution series 100 μL/well of test substance dilution prepared in complete RPMI-1640 growth media was added to the cells plated initially in 100 μL of growth media. The dilution series is selected so that ten concentrations cover a range from 10 μM to 0.33 nM. If necessary (as in the case of A375 cells, which were more sensitive to the compounds) the initial concentration of 10 μM is lowered to 1 μM and further dilution is carried out accordingly. The final concentration of DMSO in the assay is set at is 0.5%.
After 3 days of incubation, the growth media were removed by aspiration and 60 μL of diluted CellTiter-Glo® reagent (10 μL CellTiter-Glo® reagent+50 μL of PBS) was added to each well. Cells were allowed to lyse and to equilibrate in CellTiter-Glo® reagent by 5 min incubation on a plate shaker followed by 10 min incubation at room temperature. Luminescence signals were then acquired on a Synergy Neo2 plate reader (Biotek).
The effect of each compound dilution on the proliferation of cancer cell lines was expressed in % inhibition and calculated as follows. An internal 100% inhibition control (1 μM of trametinib; cat #HY-10999; MedChem Express; CAS #871700-17-3) was included in each plate and used as a measure of CellTiter-Glo® signal background. The value obtained for trametinib was subtracted from each data point. The average of DMSO (vehicle) controls (set as 0% inhibition) was established and used to calculate % inhibition: % inhibition=100*(1−((CellTiter-Glo® signalcompound)/(CellTiter-Glo® signalDMSO)))
The ability of each compound to inhibit proliferation was expressed as a EC50 value obtained by plotting the effect values for each data point of a dilution series and fitting the obtained curves using a log(agonist) versus response-variable slope (four parameters) function using GraphPadPrism (V7.0) or Dotmatics Screening Ultra platform.

CRAF = CRAF (Homo sapiens, UniProt P04049); test: CRAF kinase activity assay (ADP-Glo)
[2] = read-out: Kinase IC50 (nM) CRAF
[3] = read-out: Kinase IC50 (nM), CRAF biochemical kinase assay, CRAF

Row | Structure (SMILES) | IC50 (ARAF) [nM] | EC50 [1] [nM] | IC50 (CRAF; [2]) [nM] | IC50 (CRAF; [3]) [nM]
1 | O=S(=O)(CCCN1CCOCC1)c1cn(-c2ccc3ncnc(Nc4c(F)ccc(NS(=O)(=O)c5cccc(Cl)c5Cl)c4F)c3n2)c2ccccc12 | 1 to 10 | < 30 |  | 
2 | Cc1c(Cl)cccc1S(=O)(=O)Nc1ccc(F)c(Nc2ncnc3ccc(-n4cc(C(=O)N5CCN(C)CC5)c5ccccc54)nc23)c1F | 1 to 10 | < 30 | < 10 | 
3 | CS(=O)(=O)C1CCN(c2cccc3c2nnn3-c2ccc3ncnc(Nc4c(F)ccc(NS(=O)(=O)c5cccc(Cl)c5Cl)c4F)c3n2)CC1 | 1 to 10 | < 30 |  | < 10
4 | Cc1c(F)cccc1S(=O)(=O)Nc1ccc(F)c(Nc2ncnc3ccc(-n4cnc5c(-c6cccnc6)cccc54)nc23)c1F | 1 to 10 | < 30 | 10 to 50 | 
5 | Cc1c(Cl)csc1S(=O)(=O)Nc1ccc(F)c(Nc2ncnc3ccc(-n4cc(S(=O)(=O)N(C)CCN(C)C)c5ccccc54)nc23)c1F | < 1 | < 30 |  | < 10
6 | O=S(=O)(Nc1ccc(F)c(Nc2ncnc3ccc(-n4cnc5c(N6CCC7(CCCC7)CC6)cccc54)nc23)c1F)c1cccc(Cl)c1Cl | 1 to 10 | < 30 |  | 10 to 50
7 | COCCOc1cccc2c1nnn2-c1ccc2ncnc(Nc3c(F)ccc(NS(=O)(=O)c4cccc(Cl)c4Cl)c3F)c2n1 | 1 to 10 | < 30 |  | < 10
8 | CN(CCN1CCOCC1)S(=O)(=O)c1cn(-c2ccc3ncnc(Nc4c(F)ccc(NS(=O)(=O)c5cccc(Cl)c5Cl)c4F)c3n2)c2ccccc12 | 1 to 10 | < 30 |  | 
9 | CCC1(O)CCN(c2cccc3c2ncn3-c2ccc3ncnc(Nc4c(F)ccc(NS(=O)(=O)c5cccc(Cl)c5Cl)c4F)c3n2)CC1 | 1 to 10 | < 30 |  | < 10
10 | O=S(=O)(Nc1ccc(F)c(Nc2ncnc3ccc(-n4cnc5c(N6CCC(O)(C(F)(F)F)CC6)cccc54)nc23)c1F)c1cccc(Cl)c1Cl | > 10 | < 30 |  | 10 to 50
11 | Cc1c(F)cccc1S(=O)(=O)Nc1ccc(F)c(Nc2ncnc3ccc(-n4nc(C(=O)N(C)Cc5cccnc5)c5ccccc54)nc23)c1F |  | < 30 |  | 
12 | COc1ccc(S(=O)(=O)Nc2ccc(F)c(Nc3ncnc4ccc(-n5cc(S(=O)(=O)N(C)CCN(C)C)c6ccccc65)nc34)c2F)c(C)c1F | 1 to 10 | < 30 |  | 
13 | Cc1c(Cl)cccc1S(=O)(=O)Nc1ccc(F)c(Nc2ncnc3ccc(-n4cnc5c(N)cccc54)nc23)c1F | 1 to 10 | < 30 | < 10 | 
14 | O=S(=O)(Nc1ccc(F)c(Nc2ncnc3ccc(-n4nnc5ccccc54)nc23)c1F)c1cccc(Cl)c1Cl | 1 to 10 | < 30 | < 10 | 
